Among the data in PubChem BioAssay AID1595 (NINDS Approved Drug Screening Program, 2009) are EC50 values, retold here.

The test concerns Drosophila SCA1 polyglutamine model, toxicity suppression. As to the kind of experiment: Drosophila SCA1 whole organism dose response for polyglutamine toxicity reduction (AID 1595).

Records with an inconclusive call do not appear.

Consider `CN(CCCl)CCCl`, for which the EC50 is 2500 nM.

One may read the EC50 as the concentration needed to bring the measured effect to its halfway point.
